# This is a selection; strong and weak results do not stand in their true shares. Some salts or complexes appear as unconnected parts, following the source record. Activity calls are given as the source filed them. The call rests on the fitted dose curve; in most records, active means well fitted inhibition curve with a large enough effect; inconclusive means small, poorly fitted or top-dose-only effect, or effect the other way; inactive means flat fitted curve, though single readings scatter.
# Sequences of proteins named here, by UniProt entry; tags and fusion partners are left off.
# UniProt P10828, whole entry: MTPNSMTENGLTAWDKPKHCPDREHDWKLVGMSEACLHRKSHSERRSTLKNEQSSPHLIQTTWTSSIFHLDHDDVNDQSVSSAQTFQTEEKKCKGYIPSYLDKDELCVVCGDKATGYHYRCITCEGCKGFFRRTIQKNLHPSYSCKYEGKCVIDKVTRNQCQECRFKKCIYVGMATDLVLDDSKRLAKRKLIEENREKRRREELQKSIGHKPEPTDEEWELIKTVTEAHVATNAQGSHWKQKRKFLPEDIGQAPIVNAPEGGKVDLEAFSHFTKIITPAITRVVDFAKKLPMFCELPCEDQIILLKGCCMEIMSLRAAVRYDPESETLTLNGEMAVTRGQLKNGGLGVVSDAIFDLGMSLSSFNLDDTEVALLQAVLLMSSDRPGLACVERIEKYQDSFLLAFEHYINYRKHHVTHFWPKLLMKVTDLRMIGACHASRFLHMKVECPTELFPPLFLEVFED
# Target: Thyroid hormone receptor beta (Homo sapiens) (UniProt P10828)
# Assay: qHTS for Inhibitors of the Interaction of Thyroid Hormone Receptor and Steroid Receptor Coregulator 2;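 further: plate controls were bound peptide for no effect and peptide without receptor for full effect; nearly all actives have a fitted effect of over 50% in size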
# Details: TRbeta-SRC2 peptide binding, fluorescence polarization, receptor liganded with 1 µM T3
# From the text: NIH Molecular Libraries Probe Production Network [MLPCN]
# NIH Chemical Genomics Center [NCGC]
# Assay Provider: R. Kip Guy, St. Jude Children's Research Hospital
# Thyroid receptor (TR) regulates many homeostatic processes including basal metabolism, cardiovascular function, body weight, and lipid trafficking. TR modulators are potential therapeutics for obesity and hyperlipidemias but current thyroid analogs have undesirable side effects, particularly cardiac stimulation. To identify inhibitors that specifically prevent the interaction of TR with the steroid receptor coregulator 2 (SRC2), a fluorescence polarization assay was screened. This assay detects interaction of the ligand-binding domain of human TRb with a Texas Red labeled SRC2 peptide, corresponding to a 20 amino acid region of the nuclear receptor interaction domain (Arnold et al., 2006). Small molecule inhibitors that block the interaction of TR and SRC2 are detected by a decrease in fluorescence polarization.
# Arnold, L. A.; Estebanez-Perpina, E.; Togashi, M.; Shelat, A.; Ocasio, C. A.; McReynolds, A. C.; Nguyen, P.; Baxter, J. D.; Fletterick, R. J.; Webb, P.; Guy, R. K. A high-throughput screening method to identify small molecule inhibitors of thyroid hormone receptor coactivator binding. Sci STKE 2006, p 13.
# NCGC Assay Protocol Summary:
# For screening, 5 uL/well 0.6 uM TRb and 20 nM SRC2 Texas Red in protein buffer (20mM Tris hydrochloride, 100mM NaCl, 10% glycerol, 1mM EDTA, 0.01% NP-40, 1mM DTT, 1uM T3 and 5% DMSO) was dispensed into black solid 1536-well plates (Grenier) using a solenoid-based dispenser. Following transfer of 23 nL compound or DMSO vehicle by a pin tool, the plates were centrifuged 15 s at 1000 RPM and incubated 5 hr at ambient temperature. […] Data were normalized to unbound (all components except TRb) and bound SRC2 Texas Red controls. In this assay, we provide % activity data for each concentration as well as potencies for the active compounds.
# Keywords: NIH Roadmap, MLPCN, MLI, MLSMR, qHTS, NCGC, qHTS, thyroid hormone receptor, steroid receptor coactivator, fluorescence polarization
# [1] = at 106 µM (top of the series) unless noted
structure (smiles),measurement,setting,value
CN(C)c1cccc(C(=O)NCC2(N3CCCCC3)CCCCC2)c1,"activity change, negative = inhibition",[1],inactive: -3.94%
COc1ccc(CN(CCCl)CCCl)cc1Cl,"activity change, negative = inhibition",[1],inactive: 5.8% [at 53 µM]
CC(C)c1ccc(NC2CCN(C(=O)OC(C)(C)C)CC2)cc1,"activity change, negative = inhibition",[1],inactive: -6.31%
CCOP(=O)(Cl)Cl,"activity change, negative = inhibition",at 106 µM (top of the series),inactive: 1.06%
same,"activity change, negative = inhibition",at 201 µM (top of the series),inactive: -2.2%
COc1ccc2c(c1O)-c1c(O)c(OC)cc3c1[C@H](C2)[N+](C)(C)CC3.O=[N+]([O-])c1cc([N+](=O)[O-])c([O-])c([N+](=O)[O-])c1[O-],"activity change, negative = inhibition",[1],inactive: 4.43%
O=C(OC1CN2CCC1CC2)c1ccc([N+](=O)[O-])cc1 (stereo not given),"activity change, negative = inhibition",[1],inactive: -4.37%
O=C(NCC1(N2CCOCC2)CCCCC1)c1ccccc1Br,"activity change, negative = inhibition",[1],inactive: 1.29%
CCCCOc1ccccc1C(=O)NCC1(N2CCOCC2)CCCCC1,"activity change, negative = inhibition",[1],inactive: -1.24%
CCOc1ccc(C(=O)NCC2(N3CCOCC3)CCCCC2)cc1,"activity change, negative = inhibition",[1],inactive: -2.01%
O=C(NCC1(N2CCCCC2)CCCCC1)c1cccc([N+](=O)[O-])c1,"activity change, negative = inhibition",[1],inactive: 1.79%
N#CC1(Nc2ccccc2)CCN(CCc2ccccc2)CC1,"activity change, negative = inhibition",[1],inactive: 9.28%
CCCOc1cccc(C(=O)NCC2(N3CCOCC3)CCCCC2)c1,"activity change, negative = inhibition",[1],inactive: -1.26%
O=[N+]([O-])c1cc([N+](=O)[O-])c(NCC2CCS(=O)(=O)C2)c([N+](=O)[O-])c1 (stereo not given),"activity change, negative = inhibition",[1],inactive: -6.44%
COc1ccc(NC2CCN(C(=O)OC(C)(C)C)CC2)cc1,"activity change, negative = inhibition",[1],inactive: 3.28%
CN1CCN(CCOC(=O)C(O)(c2ccccc2)c2ccccc2)CC1,"activity change, negative = inhibition",[1],inactive: -8.84%
O=C(NCC1(N2CCOCC2)CCCCC1)c1cc(=O)[nH]c2ccccc12,"activity change, negative = inhibition",[1],inactive: -25.2%
CCOc1ccc(C)cc1CN(CCCl)CCCl,"activity change, negative = inhibition",[1],inactive: -6.22%
O=C(NCC1(N2CCOCC2)CCCCC1)c1ccc(Cl)cc1,"activity change, negative = inhibition",[1],inactive: -3.56%
COc1ccc(NC2CCN(CCc3ccccc3)CC2)c(OC)c1,"activity change, negative = inhibition",[1],inactive: -18.2%
O=[N+]([O-])c1ccccc1[N+](=O)[O-],"activity change, negative = inhibition",[1],inactive: -1.9% [at 201 µM]
COc1ccccc1C(=O)NCC1(N2CCOCC2)CCCCC1,"activity change, negative = inhibition",[1],inactive: -10.2%
COc1ccc(C(=O)NCC2(N3CCCCC3)CCCCC2)c(OC)c1OC,"activity change, negative = inhibition",[1],inactive: -1.49%
O=C(NCC1(N2CCOCC2)CCCCC1)c1cc2ccccc2o1,"activity change, negative = inhibition",[1],inactive: -1.31%
CCOC(=O)N1CCC(Nc2ccc(OC)cc2)CC1,"activity change, negative = inhibition",[1],inactive: -1.16%
N#CC1(Nc2ccccc2)CCN(Cc2ccccc2)CC1,"activity change, negative = inhibition",[1],inactive: 2.84%
O=C(OC1CN2CCC1CC2)C1c2ccccc2Oc2ccccc21 (stereo not given),"activity change, negative = inhibition",[1],inactive: -3.82%
CCOc1ncccc1C(=O)NCC1(N2CCOCC2)CCCCC1,"activity change, negative = inhibition",[1],inactive: -0.125%
CC(C)(C)OC(=O)N1CCC(Nc2ccccc2)CC1,"activity change, negative = inhibition",[1],inactive: 1.62%
CCC(CO)(C(=O)OC1CN2CCC1CC2)c1ccccc1 (stereo not given),"activity change, negative = inhibition",[1],inactive: 5.72%
COc1cc(OC)cc(C(=O)NCC2(N3CCOCC3)CCCCC2)c1,"activity change, negative = inhibition",[1],inactive: 2.49%
COc1cc(C(=O)NCC2(N3CCOCC3)CCCCC2)cc(OC)c1OC,"activity change, negative = inhibition",[1],inactive: -6.6%
CCCOc1ccc(C)cc1CN(CCCl)CCCl,"activity change, negative = inhibition",[1],inactive: -4.2%
CN(C)C1(CNC(=O)c2ccc(C(C)(C)C)cc2)CCCCC1,"activity change, negative = inhibition",[1],inactive: -1.16%
Fc1ccccc1NC1CCN(Cc2ccccc2)CC1,"activity change, negative = inhibition",[1],inactive: -1.82%
CCN1CCC(Nc2cccc(F)c2)CC1,"activity change, negative = inhibition",[1],inactive: -2.61%
CN(C)c1ccc(C(=O)NCC2(N3CCCCC3)CCCCC2)cc1,"activity change, negative = inhibition",[1],inactive: 3.57%
CC(C)(C)c1ccc(C(=O)NCC2(N3CCOCC3)CCCCC2)cc1,"activity change, negative = inhibition",[1],inactive: -9.31%
Cc1ccccc1C(=O)NCC1(N(C)C)CCCCC1,"activity change, negative = inhibition",[1],inactive: -2.09%
O=C(NCC1(N2CCOCC2)CCCCC1)c1ccc([N+](=O)[O-])cc1,"activity change, negative = inhibition",[1],inactive: -1.13%
O=C(NCC1(N2CCOCC2)CCCCC1)c1ccccc1[N+](=O)[O-],"activity change, negative = inhibition",[1],inactive: -7.28%
N#Cc1ccc(C(=O)NCC2(N3CCCCC3)CCCCC2)cc1,"activity change, negative = inhibition",[1],inactive: 1.24%
CCOC(=O)C(CC)C1=NC(C)(C)Cc2ccccc21.O=[N+]([O-])c1cc([N+](=O)[O-])c(O)c([N+](=O)[O-])c1 (stereo not given),"activity change, negative = inhibition",[1],inactive: 2.96%
O=C(NCC1(N2CCOCC2)CCCCC1)c1ccccc1,"activity change, negative = inhibition",[1],inactive: -7.64%
c1ccc(CN2CCC(Nc3ccccc3)CC2)cc1,"activity change, negative = inhibition",[1],inactive: 0.408%
ClCCOP(OCCCl)OCCCl,"activity change, negative = inhibition",[1],inactive: 1.32%
COc1ccc(C(=O)NCC2(N3CCOCC3)CCCCC2)cc1OC,"activity change, negative = inhibition",[1],inactive: -3.83%
N/C(=N\O)c1c(N)no[n+]1[O-],"activity change, negative = inhibition",[1],inactive: -0.939%
O=C(O)c1cccc(Nc2c([N+](=O)[O-])cc([N+](=O)[O-])cc2[N+](=O)[O-])c1,"activity change, negative = inhibition",[1],inactive: 6.21%
O=C(OC1CN2CCC1CC2)C1c2ccccc2C=Cc2ccccc21 (stereo not given),"activity change, negative = inhibition",[1],inactive: 1.3%
